The source of these data is publication PMC10272835, “Exploration of T cell immune responses by expression of a dominant-negative SHP1 and SHP2” (Frontiers in Immunology, 2023).

In this test the test system is ERK phosphorylation. Briefly: ERK phosphorylation after IL2 (Western blot). The class given is cell-based. Conditions: IL2 stimulation 24 hours, 3 donors. How it is done:
Cells were stimulated as indicated then 0.5x10^6 cells were harvested and pelleted at 400xg for 2 minutes. The pellets were washed with ice-cold PBS, centrifuged as before and lysed in 50μl of 1x RIPA buffer (Millipore) supplemented with 1x protease and phosphatase inhibitor (Abcam). The cells were incubated on ice for 15 minutes, vortexed and incubated for further 15 minutes. The lysate was clarified by centrifuging the cells at 13000xg for 10 minutes at 4°C, protein concentration was determined using the BCA Protein assay Kit (Pierce) and stored at -80°C until use. Prior to gel electrophoresis lysates were mixed with NuPAGE™ LDS Sample Buffer (4X) (Invitrogen™) and heated at 95°C for 10 minutes. Samples (4µg) were resolved on a premade 4–20% Mini-PROTEAN® TGX™ Precast Gel (Abcam).
Post-separation, SDS-PAGE gel was transferred to Trans-Blot Turbo Midi 0.2 µm PVDF membrane (Abcam) using Trans-Blot® Turbo™ Midi by semi-dry transfer (Abcam). Following transfer, membranes were blocked with 1x TBST (Sigma) supplemented with 5% BSA for 24 hours at 4°C. […]
stimulated with IL2 for 24 hours and phosphorylation of ERK assessed by Western blot. […]
representative donor is shown. B) The ratio of phosphorylated ERK: total ERK was assessed for […]
stimulation, as indicated, was assessed for 6 independent donors. […]

With IL2: cytokine used to stimulate T cells, the ERK phosphorylation result is “promoted ERK phosphorylation”.
